{
  "source": "patent US10159685B2",
  "about": "“Vascular calcification” (Cambridge Enterprise Limited, priority 2016, dated 2018)",
  "key": {"[1]": {"system": "bovine vascular smooth muscle cells (bVSMCs)", "type": "cell-based", "conditions": "7 days, mean of three experiments", "description": "The toxicity of the identified compounds to bovine VSMCs was measured using the MTT assay, which measures the activity of dehydrogenase enzymes of live cells. This assay can pick up both cell death and proliferation.\nThen, the MTT assay was performed."}, "[2]": {"system": "human monocyte-macrophages (HMMs)", "assay": "MTT toxicity assay, HMMs, seven days (Example 3)", "conditions": "at a concentration of 100 μM, 7 days"}},
  "note": "Where two headings read alike, the source gives them in different places. Marks after values point to notes of the source that are not given here.",
  "data": [
    {"smiles": "OCCN(CCO)c1nc(N2CCCCC2)c2nc(N(CCO)CCO)nc(N3CCCCC3)c2n1", "note": "[Dipyridamol, dipyridamol]", "values": [
      {"measurement": "Cell viability of bVSMCs after seven days (MTT signal, relative to control)", "setting": "[1]; 0.5 uM", "result": "74.66*"},
      {"measurement": "Cell viability of bVSMCs after seven days (MTT signal, relative to control)", "setting": "[1]; 1 uM", "result": "74.62*"},
      {"measurement": "Cell viability of bVSMCs after seven days (MTT signal, relative to control)", "setting": "[1]; 2 uM", "result": "74.09*"},
      {"measurement": "Cell viability of bVSMCs after seven days (MTT signal, relative to control)", "setting": "[1]; 5 uM", "result": "76.71*"},
      {"measurement": "Cell viability of bVSMCs after seven days (MTT signal, relative to control)", "setting": "[1]; 10 uM", "result": "87.97*"},
      {"measurement": "Cell viability of bVSMCs after seven days (MTT signal, relative to control)", "setting": "[1]; 20 uM", "result": 99.34},
      {"measurement": "Cell viability of bVSMCs after seven days (MTT signal, relative to control)", "setting": "[1]; 50 uM", "result": "39.52*"},
      {"measurement": "Cell viability of bVSMCs after seven days (MTT signal, relative to control)", "setting": "[1]; 100 uM", "result": "11.34*"},
      {"measurement": "Toxicity to HMMs (in words)", "setting": "[2]", "result": "relatively innocuous"}
    ]}
  ]
}
